Drawing on patent US20080279769A1, “Enzyme Inhibitor Imaging Agents” (priority 2004, published 2008), this text covers Ki for two compounds.

Amino acid sequences for entries named in this document (tags omitted). Residues count along the entry.
UniProt P03956, 100-469 limits assumed: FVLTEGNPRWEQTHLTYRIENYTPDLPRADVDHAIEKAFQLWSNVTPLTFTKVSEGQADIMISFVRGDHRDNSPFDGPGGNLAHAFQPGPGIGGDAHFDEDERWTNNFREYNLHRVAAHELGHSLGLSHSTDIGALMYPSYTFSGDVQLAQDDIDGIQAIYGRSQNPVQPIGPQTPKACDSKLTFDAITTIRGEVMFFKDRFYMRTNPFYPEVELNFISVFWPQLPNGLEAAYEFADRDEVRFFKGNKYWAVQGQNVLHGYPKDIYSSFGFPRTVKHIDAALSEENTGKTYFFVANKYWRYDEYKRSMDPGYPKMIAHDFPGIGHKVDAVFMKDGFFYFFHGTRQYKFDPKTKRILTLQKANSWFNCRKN
UniProt P08253, 110-446 limits assumed: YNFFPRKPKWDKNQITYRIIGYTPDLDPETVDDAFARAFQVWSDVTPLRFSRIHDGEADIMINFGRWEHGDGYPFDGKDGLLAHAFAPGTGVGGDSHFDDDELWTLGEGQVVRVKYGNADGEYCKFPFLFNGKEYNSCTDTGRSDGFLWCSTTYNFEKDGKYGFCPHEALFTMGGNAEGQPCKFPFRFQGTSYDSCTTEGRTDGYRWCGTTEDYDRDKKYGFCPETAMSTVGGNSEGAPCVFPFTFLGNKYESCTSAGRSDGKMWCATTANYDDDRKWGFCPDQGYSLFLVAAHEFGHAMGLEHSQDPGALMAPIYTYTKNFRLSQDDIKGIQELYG
UniProt P22894, 101-467 limits assumed: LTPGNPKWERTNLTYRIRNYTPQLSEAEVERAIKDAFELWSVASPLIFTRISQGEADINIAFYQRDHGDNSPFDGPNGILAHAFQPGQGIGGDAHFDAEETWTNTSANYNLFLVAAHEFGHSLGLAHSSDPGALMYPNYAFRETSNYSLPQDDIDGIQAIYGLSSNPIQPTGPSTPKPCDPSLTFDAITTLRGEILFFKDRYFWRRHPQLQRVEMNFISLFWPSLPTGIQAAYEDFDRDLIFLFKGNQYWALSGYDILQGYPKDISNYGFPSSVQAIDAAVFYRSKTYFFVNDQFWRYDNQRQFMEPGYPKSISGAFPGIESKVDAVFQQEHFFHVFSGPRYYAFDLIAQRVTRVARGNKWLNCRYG
UniProt P14780, 107-444 limits assumed: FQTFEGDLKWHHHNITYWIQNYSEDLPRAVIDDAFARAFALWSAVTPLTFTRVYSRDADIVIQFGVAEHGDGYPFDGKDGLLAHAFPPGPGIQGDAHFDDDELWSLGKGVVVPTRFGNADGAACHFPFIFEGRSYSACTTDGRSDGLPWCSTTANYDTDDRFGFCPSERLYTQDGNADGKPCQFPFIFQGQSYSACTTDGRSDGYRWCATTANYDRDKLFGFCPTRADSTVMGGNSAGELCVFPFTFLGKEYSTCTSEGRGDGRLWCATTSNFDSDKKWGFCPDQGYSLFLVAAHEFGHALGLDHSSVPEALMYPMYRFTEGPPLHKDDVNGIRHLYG
UniProt P39900, 106-263 limits assumed: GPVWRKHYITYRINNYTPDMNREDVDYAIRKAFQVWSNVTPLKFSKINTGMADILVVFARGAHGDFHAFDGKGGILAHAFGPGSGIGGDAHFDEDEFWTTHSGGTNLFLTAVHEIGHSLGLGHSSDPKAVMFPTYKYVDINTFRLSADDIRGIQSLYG

One assay addresses MMP-1 (Homo sapiens, UniProt P03956). In words: In vitro metalloproteinase inhibition assay (colorimetric, thiopeptolide substrate), MMP-1. The following applies: read-out: MMP-1 [Ki].
In the next assay the target is MMP-2 (Homo sapiens, UniProt P08253). The assay can be described thus: In vitro metalloproteinase inhibition assay (Biomol MMP-2 colorimetric assay kit). The assay is classed as biochemical. The following applies: read-out: MMP-2 (Ki).
The next assay deals with MMP-8 (Homo sapiens, UniProt P22894). In words: In vitro metalloproteinase inhibition assay (colorimetric, thiopeptolide substrate), MMP-8. The note with it: read-out: MMP-8 (Ki).
The next assay addresses MMP-9 (Homo sapiens, UniProt P14780). In words: In vitro metalloproteinase inhibition assay (Biomol MMP-9 colorimetric assay kit). The assay is classed as biochemical. The note with it: read-out: MMP-9 (Ki).
The target of another assay is MMP-12 (Homo sapiens, UniProt P39900). In words: In vitro metalloproteinase inhibition assay (Biomol MMP-12 colorimetric assay kit). The note with it: read-out: MMP-12 (Ki).

What is called Ki is the dissociation constant of the complex between target and ligand, obtained from inhibition or displacement. Consider `CC(C)C[C@H](CC(=O)N[C@@H](Cc1c[nH]c2ccccc12)C(=O)NCc1ccc(I)cc1)C(=O)NO`, for which the Ki on MMP-1 was 0.48 nM; on MMP-2 it was 0.26 nM; on MMP-8, 1.13 nM; on MMP-9, 0.13 nM; at MMP-12 it was 0.14 nM.
The corresponding values for `CNC(=O)[C@H](Cc1ccc(I)cc1)NC(=O)C[C@@H](CC(C)C)C(=O)NO` are 8.83 nM, 0.42 nM, 0.57 nM, 0.23 nM and 4.18 nM.
